# Screening results: PubChem, several laboratories
# iPSC survival up – hiPSC single-cell survival enhancement | ATPlite luminescence; 100% = ROCK inhibitor wells, 0% = DMSO | AID 602274 | survival enhancement, % at 20 µM | actives 0.044% (n = 360,000); in the data active = survival enhancement above about 18%;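 note: cells exposed to compounds for 16 hours before the ATP read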
# UUG fidelity – modulators of start codon recognition fidelity in yeast. S. cerevisiae UUG-firefly luciferase reporter, luminescence/redox ratio. activity score, % at 18.7 µM. 0.13% of 350,000 active. AID 602363;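 active = replicate mean at a twofold rise or more, about +100% in these data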;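 also: firefly luciferase made from a UUG start codon reports start codon fidelity; reporter light over untreated wells divided by growth signal over untreated wells; some hits fall short of that in this replicate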
# FN deposit inh – fibronectin deposition inhibition; AH1F fibroblasts, Alexa488-fibronectin deposition fluorescence, overnight; inhibition, % at 12.6 µM; actives 0.086% (n = 350,000); AID 743247;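 active = mean inhibition across replicates of 30% or more, regardless of how many single replicates reach that level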;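 note: positive control wells lacked labelled fibronectin entirely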
#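 Assay system: AH1F fibroblasts / Quantity: 10000 cells per well / Medium: DMEM plus 2% serum, read in PBS / Reagent: labelled fibronectin 24 nM / Dosing: single dose, pinned / Times: 1 h cell attachment, overnight exposure to compound and label / Signal: fluorescence, ex 485 nm, em 525 nm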
# C2C12 statin – protects C2C12 myotubes from simvastatin toxicity; rescue of ATP level, % at 7.49 µM; ATP luminescence, 48 h; scaled: DMSO 0, geranylgeraniol control 100; actives 0.78% (n = 330,000);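 active = mean ATP rescue above about 67%, or every replicate alone reaching that limit, limit read from the data, passing the limit was not always enough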;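 note: myotubes were challenged with 10 µM simvastatin during compound exposure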
# PGC1a acetyl inh – lowers PGC1a acetylation signal in U2OS cells; AlphaScreen anti-acetyl-lysine; with virally co-expressed GCN5 acetyltransferase; actives 0.17% (n = 350,000); inhibition, % at 15.6 µM;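 active = every replicate shows inhibition of at least 40%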;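 note: 0% = neutral control wells and 100% = positive control wells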
# Numbers without * were called inactive; x = no result. An excerpt weighted towards active compounds, which were near 0.91% of everything screened.
entry | Compound | iPSC survival up | UUG fidelity | FN deposit inh | C2C12 statin | PGC1a acetyl inh
1 | C[C@H]1CN([C@@H](C)CO)C(=O)c2cc(NC(=O)Nc3ccc(C(F)(F)F)cc3)ccc2O[C@H]1CN(C)Cc1ccc(C(=O)Nc2ccccc2N)cc1 | x | x | x | x | -5.1
2 | C[C@H](CO)N1C[C@H](C)[C@@H](CN(C)Cc2ccc(C(=O)Nc3ccccc3N)cc2)Oc2ccc(NC(=O)Nc3ccc(C(F)(F)F)cc3)cc2C1=O | x | -5.8 | x | 82.1* | -1.3
3 | C[C@H](CO)N1C[C@H](C)[C@@H](CN(C)Cc2ccc(C(=O)Nc3ccccc3N)cc2)Oc2c(NC(=O)Nc3ccccc3)cccc2C1=O | x | 5.2 | x | 35.1 | -5.8
4 | C[C@H](CO)N1C[C@H](C)[C@@H](CN(C)CC2CCCCC2)Oc2ccc(NC(=O)Nc3cccc4ccccc34)cc2C1=O | x | 2.7 | x | 96.0* | 10.5
5 | C[C@@H]1CN([C@@H](C)CO)C(=O)c2cccc(NC(=O)Nc3ccccc3)c2O[C@H]1CN(C)Cc1ccc(C(=O)Nc2ccccc2N)cc1 | x | -3.6 | x | 69.5* | -5.6
6 | C[C@H](CO)N1C[C@H](C)[C@H](CN(C)Cc2ccc(C(=O)Nc3ccccc3N)cc2)Oc2ccc(N(C)C)cc2C1=O | x | 11.1 | -6.7 | 83.4* | -34.3
7 | COCC(=O)Nc1ccc2c(c1)[C@H]1C[C@@H](CC(=O)N3CCCCC3)O[C@@H](CO)[C@H]1O2 | x | 22.6 | 8.3 | 2.9 | -4.3
8 | C[C@H]1CN([C@@H](C)CO)C(=O)c2cc(NC(=O)Nc3ccc(C(F)(F)F)cc3)ccc2O[C@@H]1CN(C)Cc1ccc(C(=O)Nc2ccccc2N)cc1 | x | -3.3 | x | 56.1 | 5.3
9 | C[C@@H]1CN([C@@H](C)CO)C(=O)c2cc(NC(=O)Nc3ccc(C(F)(F)F)cc3)ccc2O[C@@H]1CN(C)Cc1ccc(C(=O)Nc2ccccc2N)cc1 | x | -2.3 | x | 72.0* | 16.4
10 | CCS(=O)(=O)Nc1c(C(=O)O)[nH]c2ccccc12 | -0.3 | -13.7 | 2.5 | -11.2 | -0.3
11 | CC(=O)Nc1c(C(=O)O)[nH]c2ccccc12 | -2.8 | -2.9 | x | 99.2* | -9.6
12 | CNC[C@@H]1Oc2ccc(NC(=O)Nc3cccc4ccccc34)cc2C(=O)N([C@@H](C)CO)C[C@H]1C | x | 6.5 | x | 7.8 | -4.4
13 | COCCn1c(N)c(C(=O)Nc2sc3c(c2C(=O)OC)CCCC3)c2nc3ccccc3nc21 | 3.3 | -19.0 | x | 99.2* | 5.4
14 | COC(=O)C1=C(C)N(Cc2ccc(C(F)(F)F)cc2)C(=NCc2ccccc2C(F)(F)F)NC1c1ccccc1C(F)(F)F (stereo unspecified) | x | x | 4.3 | x | x
15 | CCOC(=O)N1CCN(C(=S)NC(=O)c2nn(C)cc2Br)CC1 | 0.4 | -24.3 | 2.6 | 125.0* | -1.9
16 | CNC(=O)CSc1nnc(-c2ccco2)n1-c1ccccc1 | 0.0 | -17.5 | 5.0 | 2.4 | 13.7
17 | O=C(CSc1nnc(-c2ccco2)n1-c1ccccc1)Nc1c(Cl)cc(Cl)cc1C(=O)O | -1.8 | -9.1 | 4.8 | -2.7 | 52.4*
18 | O=S(=O)(O/N=C1\CCCc2ccccc21)c1ccccc1 | -1.5 | -4.8 | -3.0 | x | -0.7
19 | COc1ccc(S(=O)(=O)O/N=C2\CCCc3ccccc32)cc1 | -2.1 | -9.5 | 1.4 | 72.4* | -14.6
20 | O=C(C[C@@H]1CC[C@H]2NC[C@H](O)COC[C@@H]2O1)NCCc1ccncc1 | x | -14.4 | 1.3 | 3.1 | 5.5

# Carrying on:
entry | Compound | iPSC survival up | UUG fidelity | FN deposit inh | C2C12 statin | PGC1a acetyl inh
21 | COc1ccc(C(=O)/C(=C\c2ccco2)N2C=CC=CC2=C(C#N)C#N)cc1 | -1.3 | -17.0 | x | -13.3 | 71.3*
22 | C=CCOC(=O)C1=C(C)NC(=O)NC1C1CC=CCC1 (stereo unspecified) | -4.3 | x | x | 117.1* | 2.3
23 | COCCOC(=O)C1=C(C)NC(=O)NC1C1CC=CCC1 (stereo unspecified) | -0.2 | 3.2 | x | 11.2 | -2.2
24 | C[C@H]1CN([C@@H](C)CO)C(=O)c2cccc(NC(=O)NC3CCCCC3)c2O[C@H]1CN(C)Cc1ccncc1 | x | -14.3 | x | -4.1 | -0.8
25 | Cc1ccc(S(=O)(=O)Nc2ccc3c(c2)C(=O)N([C@@H](C)CO)C[C@@H](C)[C@H](CN(C)C(=O)Nc2c(C)noc2C)OCCCC[C@H](C)O3)cc1 | x | -1.5 | 3.5 | x | -5.0
26 | Cc1ccc(S(=O)(=O)NCC(=O)OCc2cc(=O)oc3cc(C)ccc23)cc1 | 5.4 | -11.0 | -1.7 | 1.3 | x
27 | Cc1ccc2c(COC(=O)C3=COCCO3)cc(=O)oc2c1 | 22.6* | -1.0 | -6.6 | 13.9 | 3.0
28 | N#CC(=C1Nc2ccccc2N1)S(=O)(=O)c1ccccc1 | 0.1 | -14.6 | 3.0 | 107.8* | -21.3
29 | CCN1C(=O)CS/C1=C(\C#N)S(=O)(=O)c1ccccc1 | 2.4 | -17.3 | x | -3.6 | 9.7
30 | O=C(NCCCN1CCCCCC1)c1ccc(CS(=O)(=O)Cc2ccccc2F)o1 | 28.3* | -14.4 | x | -7.9 | x
31 | CCCCCCCCCCCCCCC(O)C[N+](C)(CCO)CCO (stereo unspecified) | -0.4 | x | 2.0 | x | -3.7
32 | C[C@@H]1CN([C@H](C)CO)C(=O)Cc2cc(NC(=O)Cc3cn(C)c4ccccc34)ccc2O[C@@H]1CN(C)Cc1ccc2c(c1)OCO2 | x | 6.9 | x | 85.8* | -7.8
33 | C[C@H]1CN([C@@H](C)CO)C(=O)Cc2cc(NC(=O)Cc3cn(C)c4ccccc34)ccc2O[C@@H]1CN(C)Cc1ccc2c(c1)OCO2 | x | 6.1 | x | -12.0 | -13.1
34 | C[C@@H]1CN([C@@H](C)CO)C(=O)Cc2cc(NC(=O)Cc3cn(C)c4ccccc34)ccc2O[C@H]1CN(C)Cc1ccc(Cl)c(Cl)c1 | x | -2.3 | x | 71.8* | -3.7
35 | C[C@@H]1CN([C@H](C)CO)C(=O)Cc2cc(NC(=O)Cc3cn(C)c4ccccc34)ccc2O[C@H]1CN(C)Cc1ccc(Cl)c(Cl)c1 | x | -8.5 | x | 94.9* | -8.8
36 | O=C(c1cccnc1)N1C[C@H]2[C@@H](c3ccccc31)[C@H](CO)N2C(=O)Nc1ccccc1Cl | x | -3.7 | -0.8 | 10.6 | -9.4
37 | COc1ccc(S(=O)(=O)Nc2cccc3c2O[C@@H](CN(C)C(=O)Nc2ccc(C(F)(F)F)cc2)[C@H](C)CN([C@H](C)CO)C3=O)cc1 | x | 5.6 | x | x | 2.4
38 | CCOc1cc(C(=O)NCCOC)ccc1OC | -2.1 | -4.1 | x | 120.5* | 1.1
39 | O=[N+]([O-])c1ccccc1/C=N/Nc1nccnc1Cl | -3.1 | -20.5 | 0.4 | 111.5* | 3.0
40 | Oc1ccccc1/C=N/Nc1nccnc1Cl | -3.7 | -46.5 | 7.2 | -14.4 | -46.6

# Looked up by structure from the list above:
entry | Compound | iPSC survival up | UUG fidelity | FN deposit inh | C2C12 statin | PGC1a acetyl inh
11 | CC(=O)Nc1c(C(=O)O)[nH]c2ccccc12 | -2.8 | -2.9 | x | 99.2* | -9.6
2 | C[C@H](CO)N1C[C@H](C)[C@@H](CN(C)Cc2ccc(C(=O)Nc3ccccc3N)cc2)Oc2ccc(NC(=O)Nc3ccc(C(F)(F)F)cc3)cc2C1=O | x | -5.8 | x | 82.1* | -1.3

# One compound at a time, from the list above. Order of values: iPSC survival up, UUG fidelity, FN deposit inh, C2C12 statin, PGC1a acetyl inh
# Shown for COCCOC(=O)C1=C(C)NC(=O)NC1C1CC=CCC1 (stereo unspecified) = -0.2, 3.2, x, 11.2, -2.2
# Shown for O=C(c1cccnc1)N1C[C@H]2[C@@H](c3ccccc31)[C@H](CO)N2C(=O)Nc1ccccc1Cl = x, -3.7, -0.8, 10.6, -9.4

# The listing continues:
entry | Compound | iPSC survival up | UUG fidelity | FN deposit inh | C2C12 statin | PGC1a acetyl inh
41 | O=C(Cc1ccc(Br)cc1)Nc1ccc2[nH]ncc2c1 | 24.9* | -14.7 | 2.8 | 7.1 | 7.7
42 | COc1ccc(C)cc1C(=O)C1CC(C(=O)O)C(C)(C)C1C (stereo unspecified) | -2.5 | x | x | 104.2* | 4.9
43 | COC(=O)[C@@H]1C[C@@H](C(=O)O)[C@H](C)C1(C)C | 3.7 | -7.9 | 5.7 | -9.1 | x
44 | CCC(=O)c1ccc(OCc2ccccc2)c(OC)c1 | 0.7 | x | x | 14.5 | -18.8
45 | COc1ccc(COc2ccccc2C(N)=O)cc1F | 1.4 | -16.1 | 1.4 | 109.3* | -10.0
46 | COc1cc(C(N)=O)ccc1OCc1ccccc1 | 2.7 | -12.6 | 13.5 | 117.3* | 6.8
